Reference: article PMC11753436, “Functional classification of tauopathy strains reveals the role of protofilament core residues” (Science Advances, 2025)

B1: Tau (266 to 391) (domain or fragment, human, UniProt P10636-8 266-391, looked up)
chain: LKHQPGGGKVQIINKKLDLSNVQSKCGSKDNIKHVPGGGSVQIVYKPVDLSKVTSKCGSLGNIHHKPGGGQVEVKSEKLDFKDRVQSKIGSLDNITHVPGGGNKKIETHKLTFRENAKAKTDHGAE
notes: Fibrils made in phosphate buffer pH 7.4, 10 mM DTT, 200 mM NaCl; no tag is named; source: E. coli BL21(DE3), purified (SP cation exchange, Superdex 75 SEC); fibrillised in vitro
B2: Tau (287 to 391) (domain or fragment, human, UniProt P10636-8 287-391, looked up)
chain: VQSKCGSKDNIKHVPGGGSVQIVYKPVDLSKVTSKCGSLGNIHHKPGGGQVEVKSEKLDFKDRVQSKIGSLDNITHVPGGGNKKIETHKLTFRENAKAKTDHGAE
notes: Fibrils made in phosphate buffer pH 7.4, 10 mM DTT, 200 mM MgCl2; no tag is named; source: E. coli BL21(DE3), purified (SP cation exchange, Superdex 75 SEC); fibrillised in vitro

Target: the molecule itself
Test: cryo-EM structure; helical reconstruction (RELION 4.0) of fibrils of recombinant tau fragments assembled at 10 mg/ml in phosphate buffer pH 7.4, 10 mM DTT, 200 mM MgCl2 or NaCl, 37°C, 200 rpm, 48 hours

| Protein | binding result |
| --- | --- |
| B1 | binds |
| B2 | binds |
